This is a selection; strong and weak results do not stand in their true shares. Results filed as inconclusive are left out. Calls of active or inactive are those of the source. Calls follow the shape of the dose curve; as a rule, active = well fitted cell-killing curve with a large enough effect; inconclusive = small, poorly fitted or top-dose-only effect, or effect the other way, or another doubt; inactive = no such curve, though single readings can be large or run the other way.
Potency is read from the fitted curve at half-maximal effect.

A short description of the assay: qHTS for induction of synthetic lethality in tumor cells producing 2HG: qHTS for the HT-1080-IDH1KD cell line.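 As to activity, negative = toxicity: 0% = DMSO wells and -100% = cell-free medium wells.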 To be noted: HT-1080 IDH1 knockdown viability, ATP luminescence, 48 h; series mostly up to 46.1 µM.
`COc1cc(C(=O)NCC2(N3CCOCC3)CCCCC2)ccc1OCC(C)C`: the Potency entry was “inactive”.

With `CCN(CC)CCCOC(=O)C(O)(c1ccccc1)c1ccccc1`, the Potency result was “inactive”.

In the case of `CC(O)C1C=CC=CC(=O)OC2CC3OC4C5OC5(C)CCC4(COC(=O)C4OC4(C)C(O)CO1)C2(C)C31CO1` (stereo not drawn), the Potency is active: 92 nM.

For `CC1CCOC(=O)C=CC=CC(=O)OC2CC3OC4C5OC5(C)C(O)CC4(COC(=O)C1O)C2(C)C31CO1` (stereo not drawn), the Potency was active: 116 nM.

For the molecule `CCCCOc1ccc(C(=O)NCC2(N3CCCCC3)CCCCC2)cc1OC`, the Potency result is “inactive”.

In the case of `CC1CCOC(=O)C=CC=CC(=O)OC2CC3OC4C5OC5(C)CCC4(COC(=O)C1O)C2(C)C31CO1` (stereo not drawn), the Potency was active: 32.6 nM.

On to `CN(C)C1(CNC(=O)c2ccc(S(C)(=O)=O)cc2)CCCCC1`, for which the Potency result was “inactive”.

On to `CP(=O)(Nc1ccc(SC(F)(F)F)cc1)Oc1ccccc1` (stereo not drawn), for which the Potency was active: 20600 nM.

`CN1CCCCC1COC(=O)C1(O)c2ccccc2CCc2ccccc21` (stereo not drawn): the Potency entry is “inactive”.

For the molecule `C=C(C=O)CC1CC(O)[C@]2(C)OC3CC4OC5C[C@]6(C)O[C@]7(C)CCC8OC9C[C@]%10(C)OC%11C(C)=CC(=O)OC%11CC%10OC9C[C@@H](C)C8OC7CC6O[C@]5(C)CC5OC5C4OC3CC2O1` (stereo partly drawn), the Potency was active: 1160 nM.

`COc1cc(C(=O)NCC2(N3CCOCC3)CCCCC2)cc(Cl)c1OC(C)C`: the Potency entry is “inactive”.

As for `CCN(CC)CCCOC(=O)C(O)(c1ccccc1)C1CCCCC1` (stereo not drawn), the Potency result is “inactive”.

Consider `CC1=CC2OC3CC4OC(=O)C=CC=CC(=O)OCCC(C)C(O)C(=O)OCC2(CC1)C4(C)C31CO1` (stereo not drawn), for which the Potency is active: 8.2 nM.

Take `O=C(OCCN1CCN(CCOCc2ccccc2)CC1)C(O)(c1ccccc1)c1ccccc1`: the Potency result is “inactive”.

Turning to `CC1=CC2OC3CC4OC(=O)C=CC=CC(=O)OCCC(C)C(O)C(=O)OCC2(CC1O)C4(C)C31CO1` (stereo not drawn), the Potency was active: 146 nM.

In the case of `CN(C)CCOC(=O)C(O)(c1ccccc1)C1CCCCC1` (stereo not drawn), the Potency entry was “inactive”.

For the molecule `CN(C)C1(CNC(=O)c2ccc(Cl)c(S(N)(=O)=O)c2)CCCCC1`, the Potency result was “inactive”.

As for `O=[N+]([O-])c1ccc(OP2(=O)COCCO2)cc1` (stereo not drawn), the Potency entry is “inactive”.

Consider `O=C(OCCCN1CCCC1)C(O)(c1ccccc1)C1CCCCC1` (stereo not drawn), for which the Potency result was “inactive”.

With `CCN(CC)CC(O)COC(=O)C(O)(c1ccccc1)C1CCCCC1` (stereo not drawn), the Potency entry is “inactive”.

With `CC1=CC2OC3CC4OC(=O)/C=C/C=CC(C(C)O)OCC(O)C(C)CC(=O)OCC2(CC1O)C4(C)C31CO1` (stereo not drawn), the Potency was active: 23.1 nM.

Turning to `CN(C)CCOC(=O)C(O)(c1ccccc1)C1CCCC1` (stereo not drawn), the activity, negative = toxicity was inactive: -25.4% [at 9.24 µM].

On to `CC(=O)OC1C(=O)OCC23CCC4(C)OC4C2OC2CC(OC(=O)C=CC=CC(=O)OCCC1C)C3(C)C21CO1` (stereo not drawn), for which the Potency was active: 184 nM.

With `CC1=CC2OC3CC4OC(=O)C=CC=CC(C(C)O)OCC(O)C5(C)OC5C(=O)OCC2(CC1O)C4(C)C31CO1` (stereo not drawn), the Potency is active: 29.1 nM.

`C[C@H]1[C@@H](OS(=O)(=O)O)C[C@@H]2C[C@H]([C@@H](O)c3cc(=O)[nH]c(=O)[nH]3)NC3=NC[C@H]1N32`: the Potency is active: 2060 nM.

On to `CC(O)C1C=CC=CC(=O)OC2CC3OC4C5OC5(C)C(O)CC4(COC(=O)C(O)C(C)CCO1)C2(C)C31CO1` (stereo not drawn), for which the Potency was active: 517 nM.

As to `C=C(C=O)C[C@@H]1C[C@H](O)C2OC3C[C@]4(C)OC5/C=C\CC6OC7C(CC=CCC6OC5CCCC4OC3CC2O1)OC1CC2OC3CC(=O)OC3C[C@@H](C)C[C@@]2(C)OC1C[C@@H]7C` (stereo partly drawn), the Potency is active: 4610 nM.

As for `CC(=O)O[C@H]1C[C@@H]2OC3C=C(C)CCC3(C)[C@@]1(C)[C@@]21CO1` (stereo partly drawn), the Potency is active: 2060 nM.

The values are drawn from PubChem BioAssay AID686971 (National Center for Advancing Translational Sciences (NCATS), 2013).
